Values of other authors as cited in patent US11208696B2, “Prognostic biomarkers for TTK inhibitor chemotherapy” (NETHERLANDS TRANSLATIONAL RESEARCH CENTER B.V., priority 2015, dated 2021).

Tested on: panel of 127 cancer cell lines
Conditions: read-out: IC50s, inhibition of proliferation, close to 1 μM or higher; cited from earlier work

Question: For `CCc1cccc(CC)c1NC(=O)c1nn(C)c2c1CCc1cnc(Nc3ccc(C(=O)NC4CCN(C)CC4)cc3OC(F)(F)F)nc1-2` [NMS-P715], which IC50 is on record?
Answer: ≥ 1000 nM
